The target of experiment [1] is T1, NEIL1 (Homo sapiens, UniProt Q96FI4). Kind of experiment: qHTS fluorogenic glycosylase/AP lyase assay, 1536-well, Sp/Gh substrate. The class given is biochemical. To be noted: read-out: qHTS IC50, 5 concentrations. As for the experimental part: The fluorogenic assay was miniaturized to 4 µL in 1536-well black solid plates by optimization of the enzyme and Sp/Gh substrate concentrations. Briefly, 3 µL of 25 nM NEIL1 were dispensed into each well of a 1536-well plate (except buffer in columns 3 and 4 as a negative control). Compounds (DMSO solutions) and control (DMSO only) (23 nL) were transferred to the plate via Kalypsys pintool. The plate was incubated for 15 min at room temperature, and then 1 µL of the Sp/Gh-containing DNA substrate (75 nM final concentration) was added to start the reaction. The plate was immediately transferred into the ViewLux reader for the kinetic fluorescence read. Initial rate data were normalized against uninhibited and no-enzyme controls and the resulting percent activities as a function of compound concentration were fitted using the Hill equation.
Having established the general principle for a glycosylase screening assay, further assay development was undertaken to enable HTS in which the reaction volumes were reduced by 5-fold to a total of 4 µL. Initially, the library of pharmacologically active compounds (LOPAC^1280) was screened for inhibitors of NEIL1 as a determination of the feasibility of this high-throughput method. […] All compounds were screened at 5 different concentrations that allowed for the initial estimation of inhibitory potency (IC50) values, as well as an evaluation of the shape of the response curves. In addition to the anticipated inhibitors (known DNA intercalators, such as ellipticine (IC50 = 2 µM)) and other small molecules that have been previously established to be promiscuous inhibitors (such as aurintricarboxylic acid (IC50<1 µM)), one interesting hit from this screen was CGP-74514A (NCGC ID is NCGC00015229) (Figure 5A). CGP-74514A is a known small molecule inhibitor of Cdk1 in which the structure of this molecule is based on a purine ring backbone.

The chains behind the UniProt entries cited, without tags or fusion partners.
UniProt Q96FI4, whole entry: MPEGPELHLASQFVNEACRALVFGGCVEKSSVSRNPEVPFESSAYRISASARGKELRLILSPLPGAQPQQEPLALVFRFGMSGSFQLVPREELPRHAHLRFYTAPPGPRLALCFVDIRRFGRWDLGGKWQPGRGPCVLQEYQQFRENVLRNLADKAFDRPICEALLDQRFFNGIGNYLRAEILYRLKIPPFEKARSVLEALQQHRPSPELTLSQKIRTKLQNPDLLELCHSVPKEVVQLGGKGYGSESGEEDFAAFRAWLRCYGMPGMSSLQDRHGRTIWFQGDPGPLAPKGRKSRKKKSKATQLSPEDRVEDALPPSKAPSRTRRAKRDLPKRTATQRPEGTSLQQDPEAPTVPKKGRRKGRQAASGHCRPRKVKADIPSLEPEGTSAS

Experiment [2] concerns the target T1, NEIL1. In words: gel-based incision assay of oligodeoxynucleotides containing site-specific base lesions. It is filed as biochemical. Particulars: read-out: Gel Assay IC50; polyacrylamide gel, reaction quenched at 20 min.

Regarding `Clc1ccc(C=NNc2ncnc3[nH]cnc23)cc1`, the values for the IC50 in experiment [1] and in experiment [2] were 28.2 µM and greater than 50 µM, respectively.
Take `CCn1cnc2c(Nc3ccc(CCC(=O)N=C(N)N)cc3)nc(C#N)nc21`: the IC50 is 28.2 µM in experiment [1] and greater than 50 µM in experiment [2].
Turning to `Fc1cccc(C=NNc2ncnc3[nH]cnc23)c1`, the IC50 was 8.9 µM in experiment [1] and greater than 50 µM in experiment [2].

Values taken from paper PMC3857224, “Inhibition of DNA Glycosylases via Small Molecule Purine Analogs” (PLoS ONE, 2013).
